{"source": "patent US8067586B2", "about": "“Fused heteroaryl derivatives” (Astellas Pharma Inc., priority 2000, dated 2011)", "system": "HCT116 cells", "assay": "Colon cancer cell growth inhibition (Alamar Blue)", "conditions": "incubation over 72 hours, result in words"}
{"smiles": "CC(=O)Nc1cccc(-c2nc(N3CCOCC3)c3oc4ncccc4c3n2)c1", "values": [{"measurement": "cancer cell growth inhibition activity", "result": "excellent"}]}
